# Laboratory results as given in PubChem BioAssay AID1479 (National Center for Advancing Translational Sciences (NCATS), 2009).
# Only a part is listed here, and it is no random draw. Activity calls are given as the source filed them. Calls follow the shape of the dose curve; as a rule, active = well fitted curve in either direction with a large enough effect; inconclusive = small, poorly fitted or top-dose-only effect; inactive = flat fitted curve, though single readings scatter.
# Test: Total Fluorescence Counterscreen for Inhibitors of the Interaction of Thyroid Hormone Receptor and Steroid Receptor Coregulator 2
# Settings: TRb/SRC2 Texas Red total fluorescence interference
# [1] = at 106 µM (top of the series) unless noted
# % is scaled to controls: 0 for no effect and ±100 for the full control effect.
smiles,measurement,setting,value
O=P1(Nc2ccccn2)COc2ccccc2OC1,"fluorescence change, negative = quenching",[1],inactive: -0.738%
CCOP(=O)(Nc1ccc(C)cn1)OCC,"fluorescence change, negative = quenching",[1],inactive: 0.833%
COP(=S)(Cl)OC,"fluorescence change, negative = quenching",[1],inactive: -3.44% [at 201 µM]
CC(C)(C)C(=O)NC(Sc1ncccn1)C(Cl)(Cl)Cl (configuration not stated),"fluorescence change, negative = quenching",[1],inactive: -1.11%
Clc1n[nH]nc1-c1nn[nH][15n]1,"fluorescence change, negative = quenching",[1],inactive: -3.7%
O=P1(Nc2ncccn2)COc2ccccc2OC1,"fluorescence change, negative = quenching",[1],inactive: 3.93%
Nc1cccc([As](=O)(O)c2ccccc2)c1,"fluorescence change, negative = quenching",[1],inactive: -2.7%
O=[As](O)(c1cccs1)c1cccs1,"fluorescence change, negative = quenching",[1],inactive: -7.02%
O=P1(Nc2ccc(Br)cn2)COc2ccccc2OC1,"fluorescence change, negative = quenching",[1],inactive: 0.808%
CC1CCC(C(C)C)C(OP(=O)(Nc2ccccn2)c2ccccc2)C1 (configuration not stated),"fluorescence change, negative = quenching",[1],inactive: 0.354%
Cc1nn(-c2ccccc2)c2c1P(=O)(N1CCOCC1)N(C)C(c1ccccc1)=N2 (configuration not stated),"fluorescence change, negative = quenching",[1],inactive: 0.634%
CN(C)C1(CNC(=O)c2ccc(S(C)(=O)=O)cc2)CCCCC1,"fluorescence change, negative = quenching",[1],inactive: 0.71%
O=[As](O)(c1ccccc1)c1ccc(O)cc1,"fluorescence change, negative = quenching",[1],inactive: -6.74%
CC(=O)NC(SC(=S)N(C)C)C(Cl)(Cl)Cl (configuration not stated),"fluorescence change, negative = quenching",[1],inactive: 1.29%
O=[N+]([O-])c1ncn(CCn2cnc([N+](=O)[O-])n2)n1,"fluorescence change, negative = quenching",[1],inactive: 4.29%
C(Cc1nn[nH]n1)Cc1nn[nH]n1,"fluorescence change, negative = quenching",[1],inactive: -0.0131%
Nc1ccc([As](=O)(O)c2ccc([N+](=O)[O-])cc2)cc1,"fluorescence change, negative = quenching",[1],inactive: -3.15%
O=P(Nc1ccccn1)(c1ccc(Br)cc1)c1ccc(Br)cc1,"fluorescence change, negative = quenching",[1],inactive: -2.35%
CN(C(=O)Cc1ccccc1)[C@H]1CC[C@@]2(CCCO2)C[C@@H]1N1CCCC1,"fluorescence change, negative = quenching",[1],inactive: -0.726%
Cc1cc([N+](=O)[O-])cc([N+](=O)[O-])c1O,"fluorescence change, negative = quenching",at 106 µM (top of the series),inactive: -1.6%
same,"fluorescence change, negative = quenching",at 201 µM (top of the series),inactive: -5.21%
C[C@H]1OP(=O)(Oc2ccccc2)[C@H](O)[C@H](O)[C@H]1N=[N+]=[N-] (some centres not stated),"fluorescence change, negative = quenching",[1],inactive: -0.157%
O=P(Nc1nc2ccccc2s1)(c1ccccc1)c1ccccc1,"fluorescence change, negative = quenching",[1],inactive: -3.53%
CC(C)C(=O)NC(Sc1ccccc1)C(Cl)(Cl)Cl (configuration not stated),"fluorescence change, negative = quenching",[1],inactive: -0.0628%
O=P(Nc1nccs1)(c1ccccc1)c1ccccc1,"fluorescence change, negative = quenching",[1],inactive: -0.404%
c1nnnn1CCn1cnnn1,"fluorescence change, negative = quenching",[1],inactive: -1.6%
C[C@H]1OP(=O)(Oc2ccccc2)C[C@@H]2O[C@@H]21 (some centres not stated),"fluorescence change, negative = quenching",[1],inactive: -2.34%
C[C@@H]1C=CCP(=O)(Oc2ccccc2)O1 (some centres not stated),"fluorescence change, negative = quenching",[1],inactive: -1.46%
CC(=O)Nc1ccc(Oc2c([N+](=O)[O-])cc([N+](=O)[O-])cc2[N+](=O)[O-])cc1,"fluorescence change, negative = quenching",[1],inactive: 0.36%
CC(=O)Nc1ccc([As](=O)(O)O)c(O)c1,"fluorescence change, negative = quenching",[1],inactive: -1.9%
O=P1(Nc2nc3ccc(Cl)cc3s2)COc2ccccc2O1 (configuration not stated),"fluorescence change, negative = quenching",[1],inactive: -2.55%
CC(C)(C)C(=O)NC(Sc1ccccc1)C(Cl)(Cl)Cl (configuration not stated),"fluorescence change, negative = quenching",[1],inactive: 0.66%
CCC(=O)N1C2C3N(C(=O)CC)C1C1N(C(=O)CC)C(C(N1C(=O)CC)N3C(=O)CC)N2C(=O)CC,"fluorescence change, negative = quenching",[1],inactive: 0.639%
O=C(OC1CN2CCC1CC2)c1ccccc1 (configuration not stated),"fluorescence change, negative = quenching",[1],inactive: -1.15%
CC(=O)NC(SC(=S)N(CC(C)C)CC(C)C)C(Cl)(Cl)Cl (configuration not stated),"fluorescence change, negative = quenching",[1],inactive: 3.69%
Cc1ccc(OP(=O)(Nc2ccccn2)Oc2ccc(C)cc2)cc1,"fluorescence change, negative = quenching",[1],inactive: 0.554%
COC(=O)c1cc2c(s1)N=C(c1ccccc1)N(C)P2(=O)N1CCOCC1 (configuration not stated),"fluorescence change, negative = quenching",[1],inactive: 1.1%
O=c1c2cc([N+](=O)[O-])ccc2[nH]c2c([N+](=O)[O-])cc([N+](=O)[O-])cc12,"fluorescence change, negative = quenching",[1],inactive: -9.98%
CN(C)C(=O)Oc1noc2ccccc12,"fluorescence change, negative = quenching",[1],inactive: -1.93%
Cc1ccccc1OP(=O)(Nc1ccccn1)Oc1ccccc1C,"fluorescence change, negative = quenching",[1],inactive: -0.587%
Cc1ccc(NP(=O)(Oc2cccc(C)c2)Oc2cccc(C)c2)nc1,"fluorescence change, negative = quenching",[1],inactive: -1.02%
CCOC(=O)NC(Sc1ccccc1)C(Cl)(Cl)Cl (configuration not stated),"fluorescence change, negative = quenching",[1],inactive: 0.568%
c1ccc(-c2nn[nH]n2)c(-c2nn[nH]n2)c1,"fluorescence change, negative = quenching",[1],inactive: -4%
CCNC(=S)/N=C(\N)N[N+](=O)[O-],"fluorescence change, negative = quenching",[1],inactive: -3.8%
O=C(NC1CCS(=O)(=O)C1)NP(=S)(Oc1ccccc1)Oc1ccccc1 (configuration not stated),"fluorescence change, negative = quenching",[1],inactive: -3.51%
Nc1cccc2ccc([As](=O)(O)O)cc12,"fluorescence change, negative = quenching",[1],inactive: 10.2%
CCN(N=Nc1nonc1N)c1nonc1N,"fluorescence change, negative = quenching",[1],inactive: 1.49%
O=P(Nc1nc2ccc(Cl)cc2s1)(c1ccccc1)c1ccccc1,"fluorescence change, negative = quenching",[1],inactive: -3.16%
CC(=O)Nc1ccc([As](=O)(O)O)cc1,"fluorescence change, negative = quenching",[1],inactive: -3.83%
O=C(O)c1ccccc1[As](=O)(O)O,"fluorescence change, negative = quenching",[1],inactive: -2.7%
Cc1ccc(NP(=O)(Oc2ccccc2F)Oc2ccccc2F)nc1,"fluorescence change, negative = quenching",[1],inactive: 0.648%
Cc1cc(SC(NC(=O)c2ccc(F)cc2)C(Cl)(Cl)Cl)ncn1 (configuration not stated),"fluorescence change, negative = quenching",[1],inactive: 0.232%
